Source: PMC4151564 (Journal of medicinal chemistry, 2011)

Protein sequences, listed by entry. Tags and fused reporters are not part of them. Lines headed by an entry give the natural chain unless they say otherwise; changes in a name come on top.
UniProt P11388: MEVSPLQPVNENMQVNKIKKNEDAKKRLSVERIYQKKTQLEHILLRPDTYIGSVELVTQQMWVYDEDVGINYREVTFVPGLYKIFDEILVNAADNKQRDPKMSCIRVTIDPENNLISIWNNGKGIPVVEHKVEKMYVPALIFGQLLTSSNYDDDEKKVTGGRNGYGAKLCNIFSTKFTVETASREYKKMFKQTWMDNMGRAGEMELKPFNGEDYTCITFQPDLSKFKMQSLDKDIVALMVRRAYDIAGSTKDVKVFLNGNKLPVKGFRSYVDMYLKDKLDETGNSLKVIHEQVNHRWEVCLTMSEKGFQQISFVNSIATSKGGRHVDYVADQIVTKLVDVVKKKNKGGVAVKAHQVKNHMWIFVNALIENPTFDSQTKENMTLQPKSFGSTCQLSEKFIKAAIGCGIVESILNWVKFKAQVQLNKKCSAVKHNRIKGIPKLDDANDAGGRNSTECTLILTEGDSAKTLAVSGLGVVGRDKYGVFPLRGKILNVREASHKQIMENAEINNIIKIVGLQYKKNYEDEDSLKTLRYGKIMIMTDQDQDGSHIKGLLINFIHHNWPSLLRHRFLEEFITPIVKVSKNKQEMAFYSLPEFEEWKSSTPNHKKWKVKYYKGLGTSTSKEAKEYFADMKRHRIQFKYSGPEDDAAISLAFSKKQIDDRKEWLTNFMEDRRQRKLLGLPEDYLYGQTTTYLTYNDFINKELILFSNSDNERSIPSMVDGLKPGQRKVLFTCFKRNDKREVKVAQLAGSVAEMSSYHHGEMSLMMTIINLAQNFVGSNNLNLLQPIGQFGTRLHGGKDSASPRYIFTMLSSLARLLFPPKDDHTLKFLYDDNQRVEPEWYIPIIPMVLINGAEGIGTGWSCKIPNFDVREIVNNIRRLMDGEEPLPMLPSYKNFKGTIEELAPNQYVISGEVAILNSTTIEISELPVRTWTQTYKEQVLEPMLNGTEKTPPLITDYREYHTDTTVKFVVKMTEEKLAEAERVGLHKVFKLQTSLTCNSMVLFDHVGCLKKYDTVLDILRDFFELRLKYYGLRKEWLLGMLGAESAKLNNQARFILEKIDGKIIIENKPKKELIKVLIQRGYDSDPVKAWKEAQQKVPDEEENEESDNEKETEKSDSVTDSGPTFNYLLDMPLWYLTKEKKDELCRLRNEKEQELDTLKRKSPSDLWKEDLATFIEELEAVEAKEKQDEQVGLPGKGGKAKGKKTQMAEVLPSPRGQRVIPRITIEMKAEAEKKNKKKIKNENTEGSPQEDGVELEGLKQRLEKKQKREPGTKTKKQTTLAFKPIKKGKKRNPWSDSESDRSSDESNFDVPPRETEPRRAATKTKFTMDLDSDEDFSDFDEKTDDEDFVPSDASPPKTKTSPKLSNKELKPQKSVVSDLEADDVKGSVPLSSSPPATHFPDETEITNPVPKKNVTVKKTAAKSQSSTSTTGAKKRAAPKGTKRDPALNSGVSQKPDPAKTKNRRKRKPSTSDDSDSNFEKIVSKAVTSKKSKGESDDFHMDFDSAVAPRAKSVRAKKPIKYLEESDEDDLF

Target: eukaryotic topoisomerase IIα (Homo sapiens, UniProt P11388)
Experiment: Gel-based Topo-IIα inhibition mechanism assay
Type: biochemical
Details: 500 μM inhibitor, 4 units enzyme

## COc1cc([C@@H]2c3cc4c(cc3[C@@H](O[C@@H]3O[C@@H]5CO[C@@H](C)O[C@H]5[C@H](O)[C@H]3O)[C@H]3COC(=O)[C@H]23)OCO4)cc(OC)c1O [etoposide]
  Topo-IIα inhibition mechanism (formation of linear DNA): produce discrete bands of linear DNA
